Assay results: patent US8933028B2, “Use of selective estrogen receptor modulator for joint fusion and other repair or healing of connective tissue” (priority 2010, dated 2015)

Legend:
Assay type in all cases: in vivo, human
sacroiliac joint [1] = experiment: Sacroiliac joint fusion in post menopausal women using exogenous BMP-2 alone, computerized tomography; conditions: postmenopausal females, BMP-2 only at surgery, computerized tomography three months after surgery, FIG. 3
sacroiliac joint [2] = experiment: Sacroiliac joint fusion surgeries performed with and without exogenous BMP (open procedure)
Description: A series of sacroiliac joint fusion surgeries were performed using an open procedure to expose the sacroiliac joint. Exogenous BMP treatment was introduced at the site of surgery to some patients. The union and non-union rate of the sacroiliac joint 3 month intervals after the surgeries were compared. […] Specifically, BMP-2 (Infuse™ from Medtronic) was placed into the site in association with a collagen sponge along with a spinal fusion cage and bone graft. The union and non-union frequencies of sacroiliac joint fusion surgeries performed using the open procedure with and without exogenous BMP are analyzed and the results are listed in Table 1. Although there are variations in the techniques used in the cases, and most of the with-BMP cases came later in the series, a chi-square test of the results has a p<0.00001, indicating statistically significant difference in the rate of fusion between the with and without BMP groups.
The influence of BMP on the outcome of the surgeries was further analyzed in different patient sub-groups. As shown in FIG. 2 (a), while non-smokers responded favorably for the use of BMP, the effect is more pronounced for smokers. In fact, the use of BMP has filled the fusion rate gap between the smokers and non-smokers. […] When BMP is used, however, both the smoker and non-smoker appear to have fusion rate of >90%. […] When BMP is used, the gap between the fusion rate of male and female patient shrank to less than 10% and both patient group appear to have fusion rate of 90% or greater.

sacroiliac joint [3] = experiment: Effect of oral raloxifene on bone healing after sacroiliac joint fusion with BMP-2; conditions: females over 60, BMP-2 at surgery in all patients
Text: The patients involved in the study were female at age of over 60 years old.

[4] = number of cases, open procedure, BMP-2 (Infuse) on collagen sponge with spinal fusion cage and bone graft

B1: BMP: BMP-2 (Infuse™ from Medtronic) placed into the site in association with a collagen sponge (protein, UniProt P12643 283-396, looked up)
Bone morphogenetic protein 2: QAKHKQRKRLKSSCKRHPLYVDFSDVGWNDWIVAPPGYHAFYCHGECPFPLADHLNSTNHAIVQTLVNSVNSKIPKACCVPTELSAISMLYLDENEKVVLKNYQDMVVEGCGCR
modifications: collagen sponge
notes: BMP-2 (Infuse™ from Medtronic) placed into the site in association with a collagen sponge
incorporation of bone grafts (sacroiliac joint [1]): compromised incorporation | gap between the fusion rate of male and female patient (sacroiliac joint [2]; BMP used, FIG. 2(b)): less than 10% | union rate versus cases without BMP (sacroiliac joint [2]; exogenous BMP delivered locally at the site of the fusion, chi-square p<0.00001): Significant improvement | fusion rate (sacroiliac joint [2]; male and female patient groups, BMP used, FIG. 2(b)): ≥ 90% | Non-Union (Sacroiliac Fusion Cases) (sacroiliac joint [2]; [4]): 1 | Union (Sacroiliac Fusion Cases) (sacroiliac joint [2]; [4]): 70 | fusion rate (sacroiliac joint [2]; smokers and non-smokers, BMP used, FIG. 2(a)): > 90% | bone healing / maturity of bone (sacroiliac joint [3]; raloxifene 60 mg/day orally for three months after surgery): not as mature | bone graft incorporation into host bone (images) (sacroiliac joint [3]; three months after surgery, FIGS. 5-7): not fully incorporated
